Results on 1 compound are retold here after ChEMBL document CHEMBL4680083, “Identification of Tricyclic Agonists of Sphingosine-1-phosphate Receptor 1 (S1P) Employing Ligand-Based Drug Design” (J Med Chem, 2016).

Holding throughout (format): cell-based
Assay [1] in a line: Selectivity index, ratio of EC50 for agonist activity at rat S1P3 to EC50 for agonist activity at rat S1P1 expressed in CHO cell membranes.
Assay [2] is described as follows: Selectivity index, ratio of EC50 for agonist activity at human S1P5 to EC50 for agonist activity at human S1P1 expressed in CHO cell membranes.
Assay [3] can be described thus: Selectivity index, ratio of EC50 for agonist activity at human S1P4 to EC50 for agonist activity at human S1P1 expressed in CHO cell membranes.

As to `O=C(O)C1CN(Cc2ccc3c(c2)CCc2c-3noc2-c2onc(-c3ccccc3)c2C(F)(F)F)C1`, the values for the Selectivity Index in assay [1], in assay [2] and in assay [3] were 6100, 2.4 and 2.4, respectively.
